Assay results as given in patent publication US12415774B2, “Polyol-based esters of hydroxycarboxylic acids” (KetoLipix Therapeutics GmbH, priority 2019, dated 2025).

Test system: pancreatin (Panzytrat 40,000)
Assay: Cleavage experiments with pancreatin
Settings: aqueous, 50° C.
Method: Both media are from the company Biorelevant®, Ltd. in Great Britain. In addition, in some experiments porcine pancreas is added (Panzytrat® 40,000, Fa. Allergan).
The pancreatin is used in the form of the commercially available product Panzytrat® 40,000 from the Allergan company. The whole mixture is stirred on a hot plate at 50° C.; the course of the reaction is determined and monitored by continuously recording the acid number over time.

Substance: 3-BHB-tetra-diglycerol ester
- cleavage by pancreatin to the free 3-hydroxybutyric acid: cleaved by pancreatin to the free 3-hydroxybutyric acid
